Consider one molecule from patent publication US20220356226A1 (UNIVERSIDAD DEL PA S VASCO EUSKAL HERRIKO UNIBERTSITATEA, published 2022).

The experiment concerns the target T1, amyloid β peptide […].
T1 construct: domain: amyloid β peptide […]; also called Aβ […]; Aβ peptide ([…])
Put plainly: GST pull-down on Glutathione-Sepharose, Western blot with anti-6E10. The method, then:
In vitro binding experiments were performed as described by Zugaza et al., (J. Biol. Chem. 2002 277(47):45377-45392). The Glutathione-Sepharose matrices loaded with 500 ng of the fusion proteins (GST-Rs, GST-Td, GST-Rw, GST-Rw) and 500 ng GST0 (as a control) were incubated with 100 pmol of the amyloid β peptide 1-42 in binding buffer (50 nM Tris-HCl pH 7.5, 150 mM NaCl). The proteins were eluted from the matrix by adding Laemmli buffer, and they were separated by SDS-PAGE and analyzed by Western blot, with the immunoreactive bands being visualized with an amyloid β peptide 1-42-specific (anti-6E10) antibody, followed by treatment with ECL (General Electric Healthcare).
(In general: In western blotting, separated proteins are transferred to a membrane and probed.)

B1: GST0 (GST without any additional peptide, negative control) (other, UniProt P08515 1-218, looked up)
chain: MSPILGYWKIKGLVQPTRLLLEYLEEKYEEHLYERDEGDKWRNKKFELGLEFPNLPYYIDGDVKLTQSMAIIRYIADKHNMLGGCPKERAEISMLEGAVLDIRYGVSRIAYSKDFETLKVDFLSKLPEMLKMFEDRLCHKTYLNGDHVTHPDFMLYDALDVVLYMDPMCLDAFPKLVCFKKRIEAIPQIDKYLKSSKYIAWPLQGWQATFGGGDHPPK
notes: Negative control in the pull-down; also called GSTO; control peptide (GST0)
For B1, the binding result was “no binding”.
